Data on one molecule can be found in patent publication US8618111B2, “5-alkynyl-pyrimidines” (Boehringer Ingelheim International GmbH, priority 2010, dated 2013).

Protein sequences, listed by entry. Tags and fused reporters are not part of them.
UniProt P42336, whole entry, species assumed: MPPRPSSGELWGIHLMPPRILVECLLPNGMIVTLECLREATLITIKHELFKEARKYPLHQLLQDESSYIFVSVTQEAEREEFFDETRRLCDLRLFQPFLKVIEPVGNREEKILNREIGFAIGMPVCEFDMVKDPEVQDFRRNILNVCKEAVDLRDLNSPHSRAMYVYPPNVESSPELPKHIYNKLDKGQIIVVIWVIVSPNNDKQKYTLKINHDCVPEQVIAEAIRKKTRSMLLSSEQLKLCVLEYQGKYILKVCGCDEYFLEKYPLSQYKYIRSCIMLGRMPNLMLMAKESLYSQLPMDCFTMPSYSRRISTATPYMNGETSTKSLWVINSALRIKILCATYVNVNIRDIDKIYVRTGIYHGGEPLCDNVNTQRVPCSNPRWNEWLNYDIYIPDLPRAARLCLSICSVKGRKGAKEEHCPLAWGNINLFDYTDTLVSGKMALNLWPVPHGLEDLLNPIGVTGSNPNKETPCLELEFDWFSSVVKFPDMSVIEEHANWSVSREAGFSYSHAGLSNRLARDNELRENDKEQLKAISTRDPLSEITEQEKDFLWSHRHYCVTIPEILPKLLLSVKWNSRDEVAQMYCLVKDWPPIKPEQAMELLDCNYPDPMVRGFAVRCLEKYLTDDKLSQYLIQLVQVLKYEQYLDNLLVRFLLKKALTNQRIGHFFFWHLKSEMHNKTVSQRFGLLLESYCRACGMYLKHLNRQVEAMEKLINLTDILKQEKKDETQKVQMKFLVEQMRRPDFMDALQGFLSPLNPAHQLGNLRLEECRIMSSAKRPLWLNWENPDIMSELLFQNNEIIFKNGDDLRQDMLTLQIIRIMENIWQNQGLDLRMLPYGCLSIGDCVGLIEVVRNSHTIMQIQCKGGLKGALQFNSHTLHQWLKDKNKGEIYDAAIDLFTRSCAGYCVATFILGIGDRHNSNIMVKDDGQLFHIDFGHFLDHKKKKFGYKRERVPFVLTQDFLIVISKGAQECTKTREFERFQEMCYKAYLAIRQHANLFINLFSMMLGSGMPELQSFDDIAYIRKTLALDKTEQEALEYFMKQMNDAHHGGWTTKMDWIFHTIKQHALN

In one assay the target is mTOR (Homo sapiens (Human), UniProt P42345). Briefly: mTOR kinase activity assay (phosphorylation status of mTOR substrate 4E-BP1; TR-FRET). In kind it is biochemical.
A further assay has as its target PI3Kalpha (Homo sapiens (Human), UniProt P42336). Put plainly: Inhibition of PI3Kalpha-induced PIP-2 phosphorylation (filter-binding assay). Format: biochemical. As to the method: Inhibition of PI3Kalpha-Induced PIP-2 Phosphorylation
Method Type: Filter-Binding-Assay
Aliquoted in desired amounts and stored at −80° C. Final assay concentration 25 ng/well.

`CCc1ncnc(N2CCc3ncccc3C2)c1C#Cc1ccc(N)nc1` [Example H-2] yielded an IC50 against mTOR of 67 nM. Also, the “IC50 PI3Ka” value at PI3Kalpha stood at 333 nM.
